From article PMC8461973 (ACS Sustainable Chemistry & Engineering, 2021)

Molecular target: T1, YfaU (YfaU-wt) (Escherichia coli, UniProt P76469)
T1 construct: gene rhmA
T1 sequence (P76469 1-267): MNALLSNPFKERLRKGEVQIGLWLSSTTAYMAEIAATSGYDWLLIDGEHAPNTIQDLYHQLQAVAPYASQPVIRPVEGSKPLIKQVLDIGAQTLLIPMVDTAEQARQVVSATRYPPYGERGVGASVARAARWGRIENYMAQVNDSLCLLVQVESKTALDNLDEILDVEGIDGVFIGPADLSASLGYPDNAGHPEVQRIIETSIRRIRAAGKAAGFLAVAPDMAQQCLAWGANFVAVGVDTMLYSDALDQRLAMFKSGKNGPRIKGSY
Conditions: substrate inhibition; co-substrate pyruvate

Structure (SMILES): C=O [formaldehyde]
- Ki,formadehyde: 95 ± 14 mM
